Earlier results on one molecule are cited in patent US20130065857A1, “NOVEL DXR INHIBITORS FOR ANTIMICROBIAL THERAPY” (Baylor College of Medicine, priority 2009, published 2013).

For this data set the following is noted: patients; cited from earlier work.

With `O=CN(O)CCCP(=O)(O)O` [fosmidomycin], the “half life in plasma” value is 1 h.
